# Results reported in patent US20210283220A1, “ANTIBODY MOLECULE-DRUG CONJUGATES AND USES THEREOF” (priority 2017, published 2021).
# Tested on: red blood cells
# Experiment: Red blood cell hemolysis assay (PLC, MLC)
# Format: cell-based
smiles,measurement,setting,value
"O=C(O)c1cn(C2CC2)c2cc(N3CCNCC3)c(F)cc2c1=O [Ciprofloxacin, reference compound]",Hemolysis PLC,concentration that led to 50% red blood cell lysis,>1 µg/mL
same,Hemolysis MLC,concentration that led to 100% red blood cell lysis,>1 µg/mL
same,Hemolysis MLC,mean lytic concentration,>1 µg/mL
same,Hemolysis PLC,"partial lytic concentration, the concentration at which any hemolysis is observed",1 µg/mL
same,Hemolysis MLC/MIC,ratio,>4
same,Hemolysis PLC/MIC,ratio,>4
same,MLC/MIC,ratio of mean lytic concentration to MIC,>8
same,PLC/MIC,ratio of partial lytic concentration to MIC,8
